Values of other authors in PubChem BioAssay AID493017.

Key:
Test in all cases: PubChem AID 493017
GABRA1 = settings: WOMBAT literature affinities, multiple human targets; GABA-A; gene GABRA1; NCBI gene 2554
CCKAR = settings: WOMBAT literature affinities, multiple human targets; CCK1; gene CCKAR; NCBI gene 886
ADORA1 = settings: WOMBAT literature affinities, multiple human targets, A1, gene ADORA1, NCBI gene 134; for Ki: binding affinity Ki
DRD2 = settings: WOMBAT literature affinities, multiple human targets, D2, gene DRD2, NCBI gene 1813; for Ki: binding affinity Ki
PARP1 = settings: WOMBAT literature affinities, multiple human targets; PARP1; gene PARP1; NCBI gene 142
CACNA1C = settings: WOMBAT literature affinities, multiple human targets; binding affinity Ki; Ca(2+) channel; gene CACNA1C; NCBI gene 775
OPRM1 = settings: WOMBAT literature affinities, multiple human targets; binding affinity Ki; mu; gene OPRM1; NCBI gene 4988
MMP1 = settings: WOMBAT literature affinities, multiple human targets; MMP-1; gene MMP1; NCBI gene 4312
ALOX5 = settings: WOMBAT literature affinities, multiple human targets; 5-LOX; gene ALOX5; NCBI gene 240
F10 = settings: WOMBAT literature affinities, multiple human targets, fXa, gene F10, NCBI gene 2159
ACHE = settings: WOMBAT literature affinities, multiple human targets; AChE; gene ACHE; NCBI gene 43
AR = settings: WOMBAT literature affinities, multiple human targets; binding affinity Ki; AR; gene AR; NCBI gene 367
DHFR = settings: WOMBAT literature affinities, multiple human targets, DHFR, gene DHFR, NCBI gene 1719; for Ki: binding affinity Ki
F2 = settings: WOMBAT literature affinities, multiple human targets; binding affinity Ki; thrombin; gene F2; NCBI gene 2147
NK1 = settings: WOMBAT literature affinities, multiple human targets; NK1; gene NK1; NCBI gene 6869
CHRNA = settings: WOMBAT literature affinities, multiple human targets; binding affinity Ki; nAChR; gene CHRNA; NCBI gene 1134
PTGS2 = settings: WOMBAT literature affinities, multiple human targets; COX-2; gene PTGS2; NCBI gene 5743
EDNRA = settings: WOMBAT literature affinities, multiple human targets; ET-A; gene EDNRA; NCBI gene 1909
SIGMAR1 = settings: WOMBAT literature affinities, multiple human targets; binding affinity Ki; sigma; gene SIGMAR1; NCBI gene 10280
TRPV1 = settings: WOMBAT literature affinities, multiple human targets; binding affinity Ki; VR1; gene TRPV1; NCBI gene 7442
SLC6A3 = settings: WOMBAT literature affinities, multiple human targets; DAT; gene SLC6A3; NCBI gene 6531

In the case of `CCOC(=O)c1cc2c(cn1)[nH]c1ccccc12`, the IC50 (GABRA1) is listed as 0.005 µM.

In the case of `CN1C(=O)C(NC(=O)c2ccc(Cl)cc2)N=C(c2ccccc2)c2ccccc21` (centres undefined), the IC50 (CCKAR) is listed as 0.00832 µM.

In the case of `Nc1nc(NCCc2ccccc2)nc2c1ncn2C1OC(CO)C(O)C1O` (centres undefined), the IC50 (ADORA1) is listed as 0.98 µM.

In the case of `CN1CCCC(c2cccc(O)c2)C1` (centres undefined), the IC50 (DRD2) is listed as 1.95 µM.

For `O=c1[nH]c2ccccc2c2ccccc12`, the IC50 (PARP1) is given as 0.34 µM.

In the case of `NC(CCSCc1ccccc1[N+](=O)[O-])C(=O)O` (centres undefined), the Ki (CACNA1C) is listed as 1.3 µM.

For `Oc1ccc2c(c1)[C@]13CCCCC1C(C2)N(CC1CCC1)CC3` (some centres undefined), the Ki (OPRM1) is given as 0.06 µM.

In the case of `O=C(O)CS(=O)(=O)c1ccc(-c2ccccc2)cc1`, the IC50 (MMP1) is given as 380 µM.

In the case of `COC(C)(c1nccs1)c1cccc(OCc2ccc3ccccc3c2)c1C` (centres undefined), the IC50 (ALOX5) is given as 0.03 µM.

For `CSCCC(NC(=O)C(Cc1c[nH]c2ccccc12)NC(=O)OC(C)(C)C)C(=O)NC(CC(=O)O)C(=O)NC(Cc1ccccc1)C(N)=O` (centres undefined), the IC50 (CCKAR) is listed as 1.8 µM.

In the case of `CC(=C(F)C(=O)Nc1ccc(-c2ccccc2S(N)(=O)=O)cc1)c1cccc(C(=N)N)c1`, the IC50 (F10) is listed as 0.001 µM.

In the case of `C[C@@]1(O)C(O)C(CO)OC1n1cnc2c(N)ncnc21` (some centres undefined), the Ki (ADORA1) is given as 0.74 µM.

In the case of `CNC(=O)Oc1cccc(CN(C)CCCOc2ccc3c(=O)c4ccccc4oc3c2)c1`, the IC50 (ACHE) is listed as 0.0003 µM.

In the case of `C[C@@](O)(CSc1ccc(N)cc1)C(=O)Nc1ccc(C#N)c(C(F)(F)F)c1`, the Ki (AR) is given as 0.794 µM.

In the case of `Nc1nc(N)c2nc(CN3c4ccccc4C=Cc4ccccc43)cnc2n1`, the IC50 (DHFR) is given as 0.21 µM.

In the case of `Cc1ccc(CS(=O)(=O)Nc2ccc(C)n(CC(=O)NC3CCc4nc(N)sc4C3)c2=O)cc1` (centres undefined), the Ki (F2) is listed as 0.1 µM.

For `COc1ccc(NC(=O)c2cc(NS(C)(=O)=O)ccc2NC(=O)c2ccc(N(C)C)cc2)cc1`, the Kd (F10; binding affinity Kd) is listed as 0.02 µM.

For `NCCCCCOCC1OC(OCCc2c[nH]c3ccccc23)C(OCc2ccccc2)C(OCc2ccccc2)C1OCc1ccccc1` (centres undefined), the IC50 (NK1) is given as 0.12 µM.

For `CNC(CCOc1ccc([N+](=O)[O-])cc1)c1ccc(OC(=O)N(C)C)cc1` (centres undefined), the IC50 (ACHE) is given as 0.143 µM.

In the case of `CC=C(C)C(=O)NC1CC[C@@]2(C)C(=CCC3C4=CCC(C(C)N(C)C)[C@@]4(C)CCC32)C1=O` (some centres undefined), the IC50 (ACHE) is listed as 5.8 µM.

For `CN1CC[C@@]2(C)c3cc(OC(=O)Nc4ccccc4)ccc3N(C)C12` (some centres undefined), the IC50 (ACHE) is listed as 0.022 µM.

In the case of `O=c1cc(-c2ccccc2)[nH]c2nc(Br)ccc12`, the Ki (ADORA1) is given as 0.0007 µM.

In the case of `O=C(O)c1n[nH]c2c1CCCC2`, the Ki (CHRNA) is listed as 3.54 µM.

For `COC(=O)c1cc2cc(S(C)(=O)=O)ccc2n1Cc1ccc(Br)cc1`, the IC50 (PTGS2) is listed as 3.93 µM.

In the case of `COc1cc(Cc2cnc(N)nc2N)ccc1OCc1ccccc1`, the Ki (DHFR) is given as 0.0295 µM.

In the case of `CN1CC[C@]23c4c5ccc(O)c4OC2c2c(c4c(n2C)CCCC4)C[C@@]3(O)C1C5` (some centres undefined), the Ki (OPRM1) is listed as 0.0252 µM.

In the case of `c1ccc(-c2ncc(CN3CCN(c4ncccn4)CC3)[nH]2)cc1`, the Ki (DRD2) is given as 2.25 µM.

For `COc1ccc(Cc2cnc(N)nc2N)cc1`, the Ki (DHFR) is given as 51.3 µM.

In the case of `CCC(C)C(NC(=O)C(Cc1ccccc1)NC(C)=O)C(=O)NC(Cc1c[nH]c2ccccc12)C(=O)O` (centres undefined), the IC50 (EDNRA) is listed as 8 µM.

In the case of `C=CCN1CC[C@]2(C)c3cc(O)ccc3CC1C2C` (some centres undefined), the Ki (SIGMAR1) is listed as 0.0597 µM.

For `Oc1cc2c(cc1O)CN(C(=S)NCCc1ccc(Cl)cc1)CCC2`, the Ki (TRPV1) is listed as 1.3 µM.

For `Cc1ccc(N2CCN(Cc3ccc4ccc(=O)oc4c3)CC2)cc1`, the Ki (DRD2) is listed as 5.7 µM.

For `N#Cc1ccc(N2C(=O)C3C(O)CCN3C2=O)cc1` (centres undefined), the Ki (AR) is given as 0.0032 µM.

For `COC(=O)C1C(c2ccc(Cl)cc2)CC2CCC1N2C` (centres undefined), the IC50 (SLC6A3) is given as 0.00112 µM.
